Measured values from patent US20260193317A1, “COMBINATION THERAPY WITH ACTRIIB RECEPTOR VARIANTS AND GLP-1 AGONISTS” (35PHARMA Inc., priority 2023, published 2026).
Read-outs that look alike come from different tables or passages of the source.

Molecular target: T1, GIP receptor (GIPR) (Homo sapiens, UniProt P48546)
T1 construct: host or cells: CHO-K1
T1 sequence (P48546 22-466): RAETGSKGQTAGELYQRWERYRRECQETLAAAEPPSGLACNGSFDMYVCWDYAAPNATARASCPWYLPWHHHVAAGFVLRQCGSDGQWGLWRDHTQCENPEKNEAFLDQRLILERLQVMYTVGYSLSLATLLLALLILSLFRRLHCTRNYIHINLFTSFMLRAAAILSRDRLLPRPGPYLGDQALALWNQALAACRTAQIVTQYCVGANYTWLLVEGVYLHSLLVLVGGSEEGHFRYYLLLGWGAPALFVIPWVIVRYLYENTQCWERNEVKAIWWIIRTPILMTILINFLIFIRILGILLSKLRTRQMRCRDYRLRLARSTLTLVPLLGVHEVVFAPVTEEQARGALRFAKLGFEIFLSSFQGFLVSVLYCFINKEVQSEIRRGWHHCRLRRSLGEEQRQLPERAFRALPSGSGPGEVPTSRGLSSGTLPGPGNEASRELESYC
Experiment: GIP receptor activation in CHO-K1 cells stably overexpressing GIPR
Assay type: cell-based
Conditions: retatrutide formulations, 20 mM NaPO4, glycine, sucrose, histidine pH 7.5, read-out: CBA potency GIPR
Procedure: These reporter cells were purchased from Genscript (Piscataway, NJ, cat #M00451) and were maintained following the manufacturer's instructions. […] Once the cells reached 70-80% confluence, they were detached using trypsin. For all assays, cells were seeded in clear-bottom, opaque 96-well plates at a density of 10,000 cells per well in growth medium. Cells were left to attach for 10 minutes at room temperature prior to being transferred to a 37° C. incubator (5% CO2) overnight. The next day, cells were treated with incretin mimetics to assess intracellular cAMP accumulation, using the cAMP-GloTM Max Assay from Promega (Madison, WI, cat #V1682) following the manufacturer's instructions. Briefly, cells were starved in […] modified) medium (no additional supplements) for 2 hours at 37° C. incubator (5% CO2). […] Medium was removed from the culture plates, and cells were treated with the appropriate mixes of incretin mimetics. Treatment duration was for 30 min at 37° C. (5% CO2). All treatments were performed in technical duplicates and at least two independent experiments were conducted for each incretin mimetic. Cells were lyzed for 20 minutes at room temperature (150 rpm) using the kit's buffer. Following the kit's instructions, luciferin was then added for 10 minutes at room temperature (in the dark), following which luminescence was assessed. The data were plotted in GraphPad Prism, which was used to calculate IC50 values as a non-linear regression. […] These reporter cells were purchased from Genscript (Piscataway, NJ, cat #M00486). The same methodology described above was applied for these cells.

Question: What does the source list for `CC[C@H](C)[C@H](NC(=O)[C@H](Cc1ccccc1)NC(=O)[C@H](C)NC(=O)C(C)(C)NC(=O)[C@H](CCC(N)=O)NC(=O)[C@H](C)NC(=O)[C@H](CCCCNC(=O)COCCOCCNC(=O)CC[C@H](NC(=O)CCCCCCCCCCCCCCCCCCC(=O)O)C(=O)O)NC(=O)[C@H](CCCCN)NC(=O)[C@H](CC(=O)O)NC(=O)[C@H](CC(C)C)NC(=O)[C@](C)(CC(C)C)NC(=O)[C@@H](NC(=O)[C@H](CO)NC(=O)[C@H](Cc1ccc(O)cc1)NC(=O)[C@H](CC(=O)O)NC(=O)[C@H](CO)NC(=O)[C@@H](NC(=O)[C@H](Cc1ccccc1)NC(=O)[C@@H](NC(=O)CNC(=O)[C@H](CCC(N)=O)NC(=O)C(C)(C)NC(=O)[C@@H](N)Cc1ccc(O)cc1)[C@@H](C)O)[C@@H](C)O)[C@@H](C)CC)C(=O)N[C@@H](CCC(=O)O)C(=O)N[C@@H](Cc1ccc(O)cc1)C(=O)N[C@@H](CC(C)C)C(=O)N[C@@H](CC(C)C)C(=O)N[C@@H](CCC(=O)O)C(=O)NCC(=O)NCC(=O)N1CCC[C@H]1C(=O)N[C@@H](CO)C(=O)N[C@@H](CO)C(=O)NCC(=O)N[C@@H](C)C(=O)N1CCC[C@H]1C(=O)N1CCC[C@H]1C(=O)N1CCC[C@H]1C(=O)N[C@@H](CO)C(N)=O` [Retatrutide alone]?
Answer: EC50 (D 14, RT): 1.2 pM; EC50 (D 28, 2-8° C.): 1.1 pM; EC50 (D 28, RT): 1.1 pM
